Consider one compound from US6765010B2, “Compositions and methods for enhancing analgesic potency of tramadol and attenuating its adverse side effects” (Pain Therapeutics, Inc., priority 1999, dated 2004).

This experiment concerns excitatory opioid receptors on DRG neurons. The experiment can be described thus: Blockade of opioid-induced excitatory APD prolongation in DRG neurons. Type of experiment: cell-based, mouse.

With `CO[C@]12CC[C@@]3(C[C@@H]1C(C)(C)O)[C@H]1Cc4ccc(O)c5c4[C@@]3(CCN1CC1CC1)[C@H]2O5`, the “effect on morphine's APD effects” value (higher (nM) concentration) is listed as “blocks both inhibitory as well as excitatory effects of morphine”. The “blockade of excitatory APD prolongation by bimodally-acting opioid agonists” value (pretreatment at low (fM-pM) concentrations) is listed as “remarkably effective in blocking excitatory APD-prolonging effects”.
